Drawing on patent publication US20260007679A1, “METHODS OF TREATING CANCER USING 3-(4-((4-(MORPHOLINOMETHYL)BENZYL)OXY)-1-OXOISOINDOLIN-2-YL)PIPERIDINE-2,6-DIONE” (Celgene Corporation, priority 2012, published 2026), this text covers IC50 for one molecule.

A value given as a limit tells only on which side of the number the result lay.

What all share (format): cell-based
The test system of test [1] is Karpas-1106P. Nature of the test: 5 day 3H thymidine incorporation. To be noted: Homo sapiens, PMBL. As for the experimental part:
(§1) A panel of DLBCL cell lines of various cytogenetic features was tested for their sensitivity to the antiproliferative activity of compounds I and I-S (FIG. 17). Cells were treated with the tested compound for 5 days at 37° C.; proliferation of cells was determined using ^3H-thymidine incorporation method. […] ABC-subtype cells appear more sensitive to the antiproliferative effect than other subtype cells including GCB-DLBCL and PMBL cells.
On the technique in general: Incorporation of labelled thymidine or its analogues reports DNA synthesis.

Test [2] concerns OCI-Ly10. Nature of the test: 5 day 3H thymidine incorporation. Particulars: Homo sapiens, ABC subtype. The procedure:
as §1

Test [3] concerns OCI-Ly19. Nature of the test: 5 day 3H thymidine incorporation. Particulars: Homo sapiens, GCB subtype. As for the experimental part:
as §1

For test [4], the system named is OCI-Ly3. Nature of the test: 5 day 3H thymidine incorporation. To be noted: Homo sapiens, ABC subtype. As for the experimental part: as §1
For test [5], the system named is RIVA. Nature of the test: 5 day 3H thymidine incorporation. To be noted: ABC subtype. As for the experimental part:
as §1

The subject of test [6] is SUDHL4. Nature of the test: 5 day 3H thymidine incorporation. Particulars: Homo sapiens, SU-DHL-4; GCB subtype. The procedure: as §1
Test [7] concerns TMD8. Nature of the test: 5 day 3H thymidine incorporation. Particulars: Homo sapiens, ABC subtype. As for the experimental part:
as §1

The subject of test [8] is U2932. Nature of the test: 5 day 3H thymidine incorporation. Particulars: Homo sapiens, ABC subtype. The procedure: as §1
Test [9] deals with WSU-DLCL2. Nature of the test: 5 day 3H thymidine incorporation. To be noted: Homo sapiens, WSUDLCL2; GCB subtype. The procedure: as §1
In test [10] the test system is NCI-H929 cells (Control, Revlimid-sensitive, parental). Nature of the test: Proliferation and viability by 7-AAD staining. To be noted: Homo sapiens, NCI-H929, 120 h, read-out: IC50, proliferation.
The subject of test [11] is Revlimid-resistant NCI-H929 R1-10. Nature of the test: Proliferation and viability by 7-AAD staining. To be noted: Homo sapiens, NCI-H929, 120 h, read-out: IC50, proliferation.
Test [12] deals with Revlimid-resistant NCI-H929 R2-10. Nature of the test: Proliferation and viability by 7-AAD staining. Particulars: Homo sapiens, NCI-H929, 120 h, read-out: IC50, proliferation.
Test [13] concerns Revlimid-resistant NCI-H929 R3-10. Nature of the test: Proliferation and viability by 7-AAD staining. To be noted: Homo sapiens, NCI-H929, 120 h, read-out: IC50, proliferation.
Test [14] concerns Revlimid-resistant NCI-H929 R4-10. Nature of the test: Proliferation and viability by 7-AAD staining. Particulars: Homo sapiens, NCI-H929, 120 h, read-out: IC50, proliferation.

On to `Nc1cccc2c1CN(C1CCC(=O)NC1=O)C2=O` (centres unmarked) [Revlimid, lenalidomide, reference compound], for which the IC50 in test [1] was > 100 µM; in test [2], 0.15 µM; in test [3] it was > 100 µM; in test [4], > 100 µM; in test [5] it was > 100 µM; in [6] it was > 100 µM. Moreover, the IC50 in test [7] is 75 µM; in test [8] it was 1.6 µM; in [9], > 100 µM; in [10], 1 µM; in test [11] it was > 30 µM; in [12] it was > 30 µM. Further, the IC50 in test [13] and in [14] was > 30 µM in each case.
